Legend:
SERT = SERT (Homo sapiens, UniProt P31645); assay: hSERT radioligand binding assay (3H-citalopram); details: hSERT membranes (HEK-293), 1.0 nM 3H-citalopram; tested form: TFA
NET = NET (Homo sapiens, UniProt P23975); assay: hNET radioligand binding assay (3H-nisoxetine); details: hNET membranes (HEK-293), 1.0 nM 3H-nisoxetine; tested form: TFA

Amino acid sequences for entries named in this document (tags omitted).
UniProt P31645, whole entry: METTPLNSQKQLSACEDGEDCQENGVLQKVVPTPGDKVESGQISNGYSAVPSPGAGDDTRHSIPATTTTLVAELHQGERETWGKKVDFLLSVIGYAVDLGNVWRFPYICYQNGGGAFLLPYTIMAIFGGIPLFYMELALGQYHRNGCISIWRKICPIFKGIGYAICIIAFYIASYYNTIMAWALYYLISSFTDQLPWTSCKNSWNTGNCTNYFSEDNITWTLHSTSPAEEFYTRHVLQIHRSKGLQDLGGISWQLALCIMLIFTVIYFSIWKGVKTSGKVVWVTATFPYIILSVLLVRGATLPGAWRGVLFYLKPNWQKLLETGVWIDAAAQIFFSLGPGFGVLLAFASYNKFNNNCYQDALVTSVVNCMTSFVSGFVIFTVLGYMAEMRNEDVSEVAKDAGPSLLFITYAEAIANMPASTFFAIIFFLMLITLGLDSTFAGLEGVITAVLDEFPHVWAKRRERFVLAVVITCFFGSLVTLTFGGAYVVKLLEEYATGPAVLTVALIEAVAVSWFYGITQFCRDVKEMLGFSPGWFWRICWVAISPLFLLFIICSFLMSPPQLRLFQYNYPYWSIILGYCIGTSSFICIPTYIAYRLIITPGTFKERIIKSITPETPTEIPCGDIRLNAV
UniProt P23975, whole entry: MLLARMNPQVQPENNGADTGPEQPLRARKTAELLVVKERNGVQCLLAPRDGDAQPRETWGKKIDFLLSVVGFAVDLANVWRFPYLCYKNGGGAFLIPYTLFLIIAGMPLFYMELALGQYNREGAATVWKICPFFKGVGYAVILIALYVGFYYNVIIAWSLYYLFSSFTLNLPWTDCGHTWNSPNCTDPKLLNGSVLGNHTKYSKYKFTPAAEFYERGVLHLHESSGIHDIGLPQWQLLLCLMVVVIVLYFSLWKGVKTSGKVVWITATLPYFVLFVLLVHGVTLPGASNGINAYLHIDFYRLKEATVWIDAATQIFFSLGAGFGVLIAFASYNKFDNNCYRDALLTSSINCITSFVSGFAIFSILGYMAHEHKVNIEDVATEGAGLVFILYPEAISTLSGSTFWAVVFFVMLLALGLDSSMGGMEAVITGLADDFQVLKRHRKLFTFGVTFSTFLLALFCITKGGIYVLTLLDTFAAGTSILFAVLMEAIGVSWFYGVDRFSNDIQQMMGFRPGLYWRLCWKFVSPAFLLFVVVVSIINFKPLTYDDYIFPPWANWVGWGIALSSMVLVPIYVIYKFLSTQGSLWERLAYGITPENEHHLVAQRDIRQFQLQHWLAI

| SMILES | SERT pKi (SERT) | NET pKi (NET) |
| --- | --- | --- |
| Cc1cc(Cl)cc(Cl)c1O[C@@H](c1ncco1)[C@H]1CCNC1 | ≧7.0 | ≧5.0 |
| N#Cc1c(F)c(F)nc(O[C@@H](c2ccccc2)[C@H]2CCNC2)c1F | ≧5.0 | ≧7.0 |
| Fc1cccnc1O[C@@H](c1ccccc1)[C@H]1CCNC1 | ≧7.0 | ≧5.0 |
| Clc1cncc(C(Oc2cccc3ccccc23)C2CCNC2)c1 (centres unmarked) | ≧7.0 | ≧7.0 |
| Brc1ccc(O[C@H](c2ccccc2)[C@@H]2CCNC2)nc1 | ≧7.0 | ≧5.0 |
| COc1ccc(O[C@H](c2ccccc2)[C@@H]2CCNC2)cn1 | ≧7.0 | ≧5.0 |
| Cc1cccnc1O[C@H](c1ccccc1)[C@@H]1CCNC1 | ≧5.0 | ≧7.0 |
| CC(C)Oc1ncccc1O[C@H](c1ccccc1)[C@@H]1CCNC1 | ≧5.0 | ≧7.0 |
| Fc1cc(O[C@H](c2ccccc2)[C@@H]2CCNC2)ccn1 | ≧7.0 | ≧5.0 |
| Clc1cncc(C(Oc2ccc3ccccc3c2)C2CCNC2)c1 (centres unmarked) | ≧7.0 | ≧7.0 |
| Clc1cc(Cl)cc(O[C@@H](c2cnccn2)[C@H]2CCNC2)c1 | ≧7.0 | ≧7.0 |
| Clc1ccc(O[C@H](c2ccccc2)[C@@H]2CCNC2)c(Cl)n1 | ≧7.0 | ≧5.0 |
| CC(C)Oc1ncccc1O[C@@H](c1ccccc1)[C@H]1CCNC1 | ≧5.0 | ≧7.0 |
| Clc1cc(Cl)cc(O[C@@H](c2ncco2)[C@H]2CCNC2)c1 | ≧7.0 | ≧7.0 |
| CN(C)c1c(F)c(F)nc(O[C@@H](c2ccccc2)[C@H]2CCNC2)c1F | ≧7.0 | ≧5.0 |
| Fc1cc(Cl)c(O[C@@H](c2ncco2)[C@H]2CCNC2)c(Cl)c1 | ≧7.0 | ≧5.0 |

| SMILES | SERT pKi (SERT) | NET pKi (NET) |
| --- | --- | --- |
| Clc1ccc(O[C@@H](c2ccccc2)[C@H]2CCNC2)nc1 | ≧7.0 | ≧7.0 |
| Clc1ccc(O[C@@H](c2ncco2)[C@H]2CCNC2)c(Cl)c1 | ≧7.0 | ≧7.0 |
| Cc1ccc(O[C@@H](c2ncco2)[C@H]2CCNC2)c(Cl)c1 | ≧7.0 | ≧7.0 |
| c1ccc([C@@H](Oc2cccnc2OC2CCCC2)[C@@H]2CCNC2)cc1 | ≧7.0 | ≧7.0 |
| Fc1cc(Cl)cc(Cl)c1O[C@@H](c1ncco1)[C@H]1CCNC1 | ≧7.0 | ≧7.0 |
| Fc1ccc(O[C@@H](c2ncco2)[C@H]2CCNC2)c(F)c1 | ≧5.0 | ≧7.0 |
| COc1ncccc1O[C@H](c1ccccc1)[C@@H]1CCNC1 | ≧7.0 | ≧7.0 |
| N#Cc1cc(O[C@@H](c2ccccc2)[C@H]2CCNC2)ccn1 | ≧5.0 | ≧5.0 |
| Fc1ncccc1O[C@H](c1ccccc1)[C@@H]1CCNC1 | ≧7.0 | ≧5.0 |
| COc1cc(Br)cnc1O[C@@H](c1ccccc1)[C@H]1CCNC1 | ≧7.0 | ≧7.0 |
| Fc1ccc(F)c(O[C@@H](c2ncco2)[C@H]2CCNC2)c1Cl | ≧5.0 | ≧7.0 |
| Clc1ccc(O[C@@H](c2ncco2)[C@H]2CCNC2)c(C2CCCCC2)c1 | ≧7.0 | ≧7.0 |
| Clc1cnc(O[C@H](c2ccccc2)[C@@H]2CCNC2)c(Cl)c1 | ≧7.0 | ≧7.0 |
| FC(F)(F)COc1ncccc1O[C@H](c1ccccc1)[C@@H]1CCNC1 | ≧7.0 | ≧7.0 |
| Fc1cc(F)nc(O[C@@H](c2ccccc2)[C@H]2CCNC2)c1 | ≧7.0 | ≧5.0 |

From US20100267743A1, “3-(PHENOXYPYRROLIDIN-3-YL-METHYL)HETEROARYL, 3-(PHENYLPYRROLIDIN-3-YLMETHOXY)HETEROARYL, AND 3-(HETEROARYLPYRROLIDIN-3-YLMETHOXY)HETEROARYL COMPOUNDS” (priority 2009, published 2010)
